Source: patent publication US11820970B2, “High throughput protein-protein interaction screening in yeast liquid culture” (University of Washington, priority 2016, dated 2023)

Protein sequences, listed by entry. Tags and fused reporters are not part of them.
UniProt P10415, whole entry, species assumed: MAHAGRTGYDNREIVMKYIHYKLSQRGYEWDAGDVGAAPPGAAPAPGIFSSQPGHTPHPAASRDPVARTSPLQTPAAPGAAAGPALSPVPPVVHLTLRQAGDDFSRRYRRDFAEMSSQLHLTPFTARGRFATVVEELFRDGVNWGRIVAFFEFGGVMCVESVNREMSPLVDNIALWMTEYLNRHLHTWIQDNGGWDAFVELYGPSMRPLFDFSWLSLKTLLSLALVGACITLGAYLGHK
UniProt Q07817, whole entry, species assumed: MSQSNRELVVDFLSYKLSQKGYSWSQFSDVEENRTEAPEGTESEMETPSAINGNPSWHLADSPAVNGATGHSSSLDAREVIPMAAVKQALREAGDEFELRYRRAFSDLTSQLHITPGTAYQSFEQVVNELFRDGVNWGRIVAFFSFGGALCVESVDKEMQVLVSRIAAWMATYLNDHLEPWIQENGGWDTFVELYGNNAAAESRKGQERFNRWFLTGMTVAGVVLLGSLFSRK

Columns and labels:
Bcl2 = Bcl2 (Homo sapiens, UniProt P10415); assay: Pairwise (two-strain) yeast mating assay, flow cytometry of diploid percent; assay type: cell-based; settings: SAP pair with Bcl2 displayed on MATa, Sag1 knockout, turbulent liquid culture
BclXL = BclXL (Homo sapiens, UniProt Q07817); assay: Batched (one-pot) yeast mating assay, barcode sequencing; assay type: cell-based; settings: vs BclXL
Procedure: For a many-to-many (also see Example 6) batched mating assay, multiple haploid yeast strains of each mating type are combined in a fresh 3 mL YPD culture. The recombinant MATa yeast strains are added in equal concentrations for a total density of 100 cells/μL and the recombinant MATalpha yeast strains are added in equal concentrations for a total density of 600 cells/μL. After 6 hours of growth, hygromycin is added at 100 ng/μL and β-estradiol (PE) is added at 200 ng/μL. 20 hours after the initial culture inoculation, 1 mL of cells are pelleted. 2 μL of cells are removed from the pellet, lysed with 0.2% SDS, spun down to remove all cellular debris, and diluted in water. […] The frequency that a particular pair of barcodes is observed relative to the total number of reads provides a relative measure for the number of matings that were caused by the SAP pair associated with those two particular barcodes.
LIBRARY MATING ASSAYS: For library mating assays in which each isogenic strain was constructed individually and the barcode associated with each synthetic adhesion protein was determined with Sanger sequencing, one or both of the isogenic haploid strains from a one-to-one mating were replaced with a library of strains, all of the same mating type, displaying unique barcoded synthetic adhesion proteins. […]

In the case of “Bim: natural BH3 domain peptide binder of Bcl2 family proteins”, the “mating efficiency / recovery of mating (in words)” value (Bcl2) is reported as “recovers mating efficiency” and the “binding in batched mating (interaction profile, in words)” value (BclXL) is reported as “nonspecifically”.

In the case of “Puma: natural BH3 domain peptide binder of Bcl2 family proteins (EEQWAREIGAQLRRMADDLNAQYERR)”, the “binding in batched mating (interaction profile, in words)” value (BclXL) is reported as “nonspecifically”.
